System: phenylephrine (PHE) induced hypertension
Test: antagonism against phenylephrine (PHE) induced hypertension in anesthetized rats
Type: in vivo, rat
Details: 1 mg/kg i.v.

## COc1cc2c(c(OC)c1OC)C[C@@H](N1CCC(n3c(=O)[nH]c4ccccc43)CC1)[C@H]2O (relative stereo) [MG 38007, cis 2-[4-(2-Oxo-2-benzimidazolinyl)-1-piperidinyl]-4,5,6-trimethoxy-1-indanol]
  PHE dosis causing a 50 mm Hg increase of the arterial pressure, in comparison with the controls: about 9 times
